target: T1, Polyunsaturated fatty acid 5-lipoxygenase (Rattus norvegicus, UniProt P12527); experiment: Inhibition of 5-lipoxygenase on rat basophil leukemia cell line lysate (RBL-1 2H3 subline) by measuring 5-HETE production; format: functional, cell-based
T1 sequence (P12527 whole entry): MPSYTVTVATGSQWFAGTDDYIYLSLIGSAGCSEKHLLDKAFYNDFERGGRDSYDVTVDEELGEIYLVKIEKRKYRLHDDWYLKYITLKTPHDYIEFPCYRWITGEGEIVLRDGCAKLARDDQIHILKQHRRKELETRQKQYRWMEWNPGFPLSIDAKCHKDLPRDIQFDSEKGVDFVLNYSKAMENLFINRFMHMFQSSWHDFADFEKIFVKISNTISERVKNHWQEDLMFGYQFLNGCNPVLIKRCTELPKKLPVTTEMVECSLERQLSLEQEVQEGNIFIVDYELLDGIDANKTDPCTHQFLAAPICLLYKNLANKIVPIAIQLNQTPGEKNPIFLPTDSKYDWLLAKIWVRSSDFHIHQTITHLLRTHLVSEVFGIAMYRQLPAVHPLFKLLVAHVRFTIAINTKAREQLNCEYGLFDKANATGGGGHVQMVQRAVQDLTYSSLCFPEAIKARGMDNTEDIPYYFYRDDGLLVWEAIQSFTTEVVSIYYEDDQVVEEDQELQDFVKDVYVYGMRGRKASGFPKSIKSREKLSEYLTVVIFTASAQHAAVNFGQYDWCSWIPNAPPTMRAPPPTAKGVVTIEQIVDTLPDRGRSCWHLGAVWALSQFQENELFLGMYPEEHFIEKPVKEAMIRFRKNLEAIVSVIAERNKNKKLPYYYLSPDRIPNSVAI

IC50 | SMILES
570 nM | NC(=O)N(O)Cc1ccc(Oc2ccccc2)s1
150 nM | CC(C#Cc1cccc(Oc2ccccc2)c1)N(O)C(N)=O (centres undefined)
680 nM | CC(C(=O)N(C)O)c1cc2ccccc2s1 (centres undefined)
2000 nM | Cc1ccc(/C=C/CN(O)C(N)=O)o1

Reference: ChEMBL document CHEMBL1130069, “Structure-activity relationships of N-hydroxyurea 5-lipoxygenase inhibitors” (J Med Chem, 1997)
